Results from patent publication US20050074404A1, “Methods for avoiding renal injury” (Pfizer Inc., priority 2002, published 2005).

Assays:
[1] = Urinary retinol concentrations in rats (HPLC); format: in vivo, rat; conditions: after a single dose at 100 mg/kg
Method: A. Dosing of Mammals, Collection and Storage of Urine
Male Sprague Dawley rats (105-125 grams each) were purchased from Charles River (Kingston, N.Y.). Gentamicin sulfate, 100 mg/mL, was purchased from Fermenta Animal Health Co. (Kansas City, Mo., catalog #568-2589, 2417). Rats were dosed intramuscular, using a 25 gauge tuberculin syringe. The animals were housed individually prior to urine collection. For the urine collection, rats were transferred to individual metabolism cages. At all times throughout the study, the animals had free access to food and water. Forty-eight rats were divided equally into two dosage groups: 0 mg/kg (control) and 100 mg/kg gentamicin. Rats were dosed once per day for the duration of 1, 4 or 9 days. Urine was collected after one dose, four doses and nine doses. Each collection period was for 24 hours. Urine was collected, chilled to approximately 4° C. and protected from light. Total urine volume was measured at the end of each collection period prior to retinol analysis. […]
The HPLC instrumentation consisted of a Hewlett-Packard Model 1090 Series II system (Hewlett Packard Company, Palo Alto, Calif.) equipped with a tertiary gradient pump, diode array detector, and a cooled auto-sampler. […] Absorbance data for all retinols was collected at a wavelength of 340 nm. […]

[2] = Urinary albumin concentrations in rats; format: in vivo, rat; conditions: after a single dose at 100 mg/kg
Method: Male Sprague Dawley rats (105-125 grams each) were purchased from Charles River (Kingston, N.Y.). Gentamicin sulfate, 100 mg/mL, was purchased from Fermenta Animal Health Co. (Kansas City, Mo., catalog #568-2589, 2417). Rats were dosed intramuscular, using a 25 gauge tuberculin syringe. The animals were housed individually prior to urine collection. For the urine collection, rats were transferred to individual metabolism cages. At all times throughout the study, the animals had free access to food and water. Forty-eight rats were divided equally into two dosage groups: 0 mg/kg (control) and 100 mg/kg gentamicin. Rats were dosed once per day for the duration of 1, 4 or 9 days. Urine was collected after one dose, four doses and nine doses. Each collection period was for 24 hours. Urine was collected, chilled to approximately 4° C. and protected from light. Total urine volume was measured at the end of each collection period prior to retinol analysis. The urine was stored at −80° C. and in darkness to protect the components of the urine from oxidation and degration until analysis.

For Gentamicin sulfate, the Retinol excretion [1] was “significant increase” and the Albumin excretion [2] was “significant increase”.
